Bioassay records (PubChem BioAssay)
Hits are enriched below; roughly 1.8% of the tested compounds scored in any of these assays.
Yeast UUG start – alters start codon recognition fidelity in yeast; S. cerevisiae UUG-firefly luciferase reporter, luminescence/redox ratio; activity score, % at 18.7 µM; actives 0.13% (n = 350,000); AID 602363;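 active = replicate mean at a twofold rise or more, about +100% in these data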;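 also: firefly luciferase made from a UUG start codon reports start codon fidelity; reporter light over untreated wells divided by growth signal over untreated wells; some hits fall short of that in this replicate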
Cneo AK release – Cryptococcus neoformans lysis via adenylate kinase release; C. neoformans lysis, adenylate kinase release luminescence, 4 h; normalised: neutral wells 0, clomiphene wells 100; lysis activity, % at 15 µM; actives 0.2% (n = 360,000); AID 651654;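 active means mean lysis activity across replicates of at least 80%, whatever share of replicates individually reach that level; inactive means mean lysis activity below 80%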
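Schedule: static 4 h at 37 °C with compound, 1 h detection; system: C. neoformans cells; benchmarks: Clomiphene as positive control; buffer or medium: fresh YPD medium; measure: luminescence rise reflecting yeast cell lysis; measured by: luminescent adenylate kinase detection reagent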
E-selectin induc – induces E-selectin expression in human endothelial cells. P16581. actives 0.37% (n = 260,000). AID 686992. HUVEC E-selectin immunofluorescence imaging; normalized: neutral wells 0, TNF-alpha wells 100. activation, % at 7.58 µM;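 active means mean E-selectin-positive cell signal at least 10% of the positive control, reached in at least 60% of replicates, without over 20% cell loss; inconclusive means no rule given, readout overlaps actives, possibly toxicity-flagged; inactive means the rest, including those meeting only one limit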
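material = human umbilical vein endothelial cells (HUVEC), E-selectin induction | quantity = 3,000 cells/well | medium = EGM-2 growth medium on 0.1% gelatin-coated wells | technique = immunofluorescence imaging | read-out basis = % PE-positive cells | control set = TNF-alpha positive control, DMSO neutral control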
DENV2 CPE – protects cells from dengue virus 2 cytopathic effect. DENV2-infected cells, cytopathic effect rescue, plate reader. CPE inhibition, % at 9.99 µM. actives 1.7% (n = 350,000). AID 651640; in the data active means CPE inhibition above about 20%, passing the limit was not always enough; inconclusive means no clear call, values can overlap the other calls; tested in BHK-21 cells;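 further: 0% = median of neutral control wells and 100% = median of positive control wells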
Numbers without * were called inactive; ? = inconclusive; . = no result given.

Order of results: Yeast UUG start, Cneo AK release, E-selectin induc, DENV2 CPE
(1) COc1ccc2c3c(n(C)c2c1)[C@H](CO)N(C(=O)c1cccnc1)CC31CCN(S(=O)(=O)c2ccccc2)CC1
    ., ., 0, 11
(2) CN(C)CC(=O)N[C@@H]1CC[C@@H](CCNC(=O)C2CCCC2)O[C@H]1CO
    6, 0, 0, 1
(3) CC(=O)N[C@@H]1CC[C@H](CCNC(=O)C2CCCC2)O[C@H]1CO
    -7, -5, -1, 90*
(4) O=C(NCC[C@@H]1CC[C@@H](NC(=O)C2CCCC2)[C@@H](CO)O1)c1cc(Cl)cc(Cl)c1
    -7, -5, 0, 21*
(5) CN(C)CC(=O)N[C@H]1CC[C@H](CCNC(=O)C2CCCC2)O[C@H]1CO
    -4, 1, 0, 27*
(6) Cc1noc(C)c1NC(=O)N[C@@H]1CC[C@@H](CCNC(=O)C2CCCC2)O[C@H]1CO
    3, -3, 1, 25*
(7) O=C(NCC[C@H]1CC[C@H](NC(=O)C2CCCC2)[C@H](CO)O1)c1cc(Cl)cc(Cl)c1
    0, -1, 0, 3
(8) CC(=O)N[C@@H]1CC[C@H](CCNC(=O)C2CCCC2)O[C@@H]1CO
    -11, -2, 0, 7
(9) CCC(=O)Nc1ccc2c(c1)C(=O)N(C)C[C@H](OC)[C@@H](C)CN(C(=O)c1ccccc1F)[C@H](C)CO2
    0, -3, 0, 8
(10) CC(Sc1ccccn1)C(=O)Nc1ccc2c(c1)OCCO2 (stereo not given)
    -35, -1, ., 27*
(11) c1ccc(-c2ccc3[nH]ccc3c2)cc1
    -15, -17, 0, 87*
(12) O=C(C[C@@H]1CC[C@H]2[C@@H](COC[C@@H](O)CN2S(=O)(=O)c2ccc(F)cc2)O1)NCc1ccc(Cl)c(Cl)c1
    -5, 1, 0, 15
(13) C=CCn1c(=N)n(CC(=O)c2ccc(Cl)cc2)c2ccccc21
    -11, 2, ., 7
(14) C=CCn1c(=N)n(CC(=O)c2ccc(Br)s2)c2ccccc21
    -5, -1, 69*, -10
(15) CO[C@H]1CN(C)C(=O)c2cc(NC(=O)C3CC3)ccc2OC[C@H](C)N(C)C[C@H]1C
    5, -7, 0, 19
(16) COc1ccc(S(=O)(=O)Nc2ccc3c(c2)C(=O)N([C@@H](C)CO)C[C@H](C)[C@@H](CN(C)C(=O)Cc2ccccc2)OCCCC[C@@H](C)O3)cc1
    -2, -3, 0, 26*
(17) COc1ccc(S(=O)(=O)Nc2ccc3c(c2)C(=O)N([C@H](C)CO)C[C@H](C)[C@@H](CN(C)C(=O)Cc2ccccc2)OCCCC[C@@H](C)O3)cc1
    -2, -1, 0, 10
(18) COc1ccc(NC(=O)Nc2ccc3c(c2)C(=O)N([C@H](C)CO)C[C@H](C)[C@@H](CN(C)C(=O)Cc2ccccc2)OCCCC[C@H](C)O3)cc1
    16, -1, 0, 58*
(19) COc1ccc(S(=O)(=O)Nc2ccc3c(c2)C(=O)N([C@@H](C)CO)C[C@@H](C)[C@@H](CN(C)C(=O)Cc2ccccc2)OCCCC[C@@H](C)O3)cc1
    6, -2, 0, 21*
(20) CC(=O)NC(Cc1ccccc1)C(=O)O (stereo not given)
    -18, -1, ., 56*
(21) C[C@H]1CN([C@@H](C)CO)C(=O)c2cc(NC(=O)C3CC3)ccc2O[C@H]1CN(C)S(=O)(=O)c1cn(C)cn1
    -3, 1, 0, 2
(22) COc1ccc(CNC(=O)C[C@H]2C(=O)N(Cc3ccc(OC)cc3)C[C@@H]2Cc2ccccc2)cc1
    -17, -2, ., -1
(23) CCCCN1C[C@H](Cc2ccccc2)[C@@H](CC(=O)Nc2ccccc2)C1=O
    5, 2, ., 56*
(24) COc1ccc(CNC(=O)C[C@H]2C(=O)N(Cc3ccccc3)C[C@@H]2Cc2ccccc2)cc1
    -10, 0, 0, 30*
(25) C[C@@H]1CN([C@@H](C)CO)C(=O)c2cc(NC(=O)CCCN(C)C)ccc2O[C@H]1CN(C)Cc1ccc(-c2ccccc2)cc1
    -12, 4, 2, 1
(26) C[C@@H]1CN([C@@H](C)CO)C(=O)Cc2cc(NC(=O)Nc3ccc(C(F)(F)F)cc3)ccc2O[C@@H]1CN(C)Cc1ccc(C(=O)Nc2ccccc2N)cc1
    -11, 6, 11, 4
(27) CN(C)S(=O)(=O)N1CCC(Oc2ccc(C(=O)N3CCCCCCC3)cc2)CC1
    29, 2, -1, 45*
(28) CN1c2ccc(-c3ccccc3F)cc2[C@@H]2[C@@H](CCN2C(=O)Nc2ccc(F)cc2)[C@@H]1CO
    1, -4, 2, .
(29) CN1CCN(C(=O)c2cc3sc4ccccc4c3s2)CC1
    -34, -10, 0, 43*
(30) C[C@@H](NC(=O)C[C@@H]1CC[C@@H]2[C@H](COC[C@@H](O)CN2Cc2cc(F)ccc2F)O1)c1ccccc1
    -11, 0, 0, -7
(31) COc1ccc2c3c([nH]c2c1)[C@@H](CO)N(CC1CCOCC1)CC31CN(CC2CCOCC2)C1
    ., ., 0, -12
(32) C[C@H]1CN([C@@H](C)CO)C(=O)Cc2cc(NS(C)(=O)=O)ccc2O[C@@H]1CN(C)Cc1ccc(Oc2ccccc2)cc1
    4, 0, 169*, 9
(33) C[C@@H]1CN([C@H](C)CO)C(=O)Cc2cc(NS(=O)(=O)c3ccccc3)ccc2O[C@@H]1CN(C)Cc1ccc(Oc2ccccc2)cc1
    6, 7, 0, 30*
(34) C[C@H]1CN([C@@H](C)CO)C(=O)c2cc(NS(=O)(=O)c3ccccc3)ccc2O[C@H]1CN(C)Cc1ccc(Oc2ccccc2)cc1
    2, 64, 0, 35*
(35) Cc1ccc(S(=O)(=O)Nc2ccc3c(c2)CC(=O)N([C@@H](C)CO)C[C@H](C)[C@H](CN(C)Cc2ccc(Oc4ccccc4)cc2)O3)cc1
    10, 51, 0, 69*
(36) C[C@@H]1CN([C@H](C)CO)C(=O)c2cc(NC(=O)Nc3ccccc3)ccc2O[C@@H](C)CCCCO[C@@H]1CN(C)S(=O)(=O)c1cccs1
    -5, 0, ., -10
(37) CC=Cc1ccc2n(c1=O)C[C@H]1N[C@@H]2[C@@H](C(=O)NCCc2ccccc2)[C@@H]1CO (mixture of isomers)
    ., 2, 0, -6
(38) COC(=O)CN(c1cc(Cl)ccc1OC)S(=O)(=O)c1ccc(OC)c(OC)c1
    -5, -4, ., 61*
(39) COC(=O)CN(c1ccc(OC)cc1)S(=O)(=O)c1ccc(OC)c(OC)c1
    26, 6, ., .
(40) O=C(CCc1ccccc1)Nc1cccc([N+](=O)[O-])c1
    1, 0, ., 13

Limited to Cneo AK release and E-selectin induc, for some of the entries so far:
cpd | canonical_smiles | Cneo AK release | E-selectin induc
38 | COC(=O)CN(c1cc(Cl)ccc1OC)S(=O)(=O)c1ccc(OC)c(OC)c1 | -4 | .
26 | C[C@@H]1CN([C@@H](C)CO)C(=O)Cc2cc(NC(=O)Nc3ccc(C(F)(F)F)cc3)ccc2O[C@@H]1CN(C)Cc1ccc(C(=O)Nc2ccccc2N)cc1 | 6 | 11
23 | CCCCN1C[C@H](Cc2ccccc2)[C@@H](CC(=O)Nc2ccccc2)C1=O | 2 | .
22 | COc1ccc(CNC(=O)C[C@H]2C(=O)N(Cc3ccc(OC)cc3)C[C@@H]2Cc2ccccc2)cc1 | -2 | .
31 | COc1ccc2c3c([nH]c2c1)[C@@H](CO)N(CC1CCOCC1)CC31CN(CC2CCOCC2)C1 | . | 0

Three compounds already listed, arranged by the value under Yeast UUG start, ascending:
No. | Compound | Yeast UUG start | DENV2 CPE
38 | COC(=O)CN(c1cc(Cl)ccc1OC)S(=O)(=O)c1ccc(OC)c(OC)c1 | -5 | 61*
5 | CN(C)CC(=O)N[C@H]1CC[C@H](CCNC(=O)C2CCCC2)O[C@H]1CO | -4 | 27*
2 | CN(C)CC(=O)N[C@@H]1CC[C@@H](CCNC(=O)C2CCCC2)O[C@H]1CO | 6 | 1

Going on with the list.
Order of results: Yeast UUG start, Cneo AK release, E-selectin induc, DENV2 CPE
(41) CCCC(CCC(=O)Nc1cccc([N+](=O)[O-])c1)C(=O)O (stereo not given)
    -13, 4, 4, 1
(42) CCN(CC)CCCNC(CC(=O)Nc1cccc([N+](=O)[O-])c1)C(=O)O (stereo not given)
    -6, -1, ., 30*
(43) O=C(CCCc1ccccc1)Nc1cccc([N+](=O)[O-])c1
    -12, -7, ., 40*
(44) O=C(C[C@@H]1C[C@H]2c3cc(NC(=O)CC4CC4)ccc3O[C@H]2[C@@H](CO)O1)NCc1ccccc1F
    -4, 14, 0, ?
(45) CCCNC(=O)N1C[C@@H](C)[C@@H](OC)CN(C)C(=O)c2cc(NS(=O)(=O)CC(F)(F)F)ccc2OC[C@H]1C
    -5, -4, 0, 2
